Assay results taken from patent publication US6528093B1, “Sustained-release preparation” (Takeda Chemical Industries, Ltd., priority 1992, dated 2003).

Assay: Dissolution of peptide acetate in a dichloromethane solution of lactic acid-glycolic acid copolymer
Assay type: physicochemical
Text: The particle size distribution and physiologically active peptide A content of the microcapsules were 10 to 90 μm and 2.5% (w/w), respectively.
The particle size distribution and physiologically active peptide A content of the microcapsules were 10 to 90 μm and 3.6% (w/w), respectively.

Measured: dissolution in copolymer/dichloromethane solution

NAcD2Nal-D4ClPhe-D3Pal-Ser-NMeTyr-DLys(Nic)-Leu-Lys(Nisp)-Pro-DAlaNH2 [physiologically active peptide A acetate]
could not be successfully dissolved: 400 mg in 3.6 g lactic acid/glycolic acid=50/50 copolymer, GPC Mw 58,000, end-group Mn 45,000 (RG505-05077), 33.2 g dichloromethane | 400 mg in 3.6 g lactic acid/glycolic acid=75/25 copolymer, GPC Mw 18,000, end-group Mn 30,000 (RG752-15057), 8.0 g dichloromethane | 400 mg in 3.6 g lactic acid/glycolic acid=75/25 copolymer, GPC Mw 58,000, end-group Mn 53,000 (RG755-05019), 21.2 g dichloromethane
